Results from PMC7150891, “Mertansine Inhibits mRNA Expression and Enzyme Activities of Cytochrome P450s and Uridine 5′-Diphospho-Glucuronosyltransferases in Human Hepatocytes and Liver Microsomes” (Pharmaceutics, 2020).

Test system: UGT1A1 mRNA
Assay: UGT1A1 mRNA level in human hepatocytes after 48 h treatment (RT-PCR)
Details: Omeprazole 50 μM, Lot 361

In the case of `COc1ccc2[nH]c([S+]([O-])Cc3ncc(C)c(OC)c3C)nc2c1` (stereo not shown) [Omeprazole, omeprazole], the “UGT1A1 mRNA (Fold Change)” value is reported as 3.9 ± 0.24 Fold Change.
